Values quoted from earlier work in publication PMC8896928, “Preparation, Characterization, and Preliminary Imaging Study of [^188Re]Re-Ibandronate as a Novel Theranostic Radiopharmaceutical for Bone Metastasis” (Contrast Media & Molecular Imaging, 2022).

What was measured:
[1] = Swiss mice, cited from earlier work
[2] = human serum, 24 h; cited from earlier work

Substance | Bone uptake (maximum) ([1]; 1 h) | Bone uptake (lowest value) ([1]; 24 h) | Stability (RCP) [2]
[^188Re]Re-zoledronate [[^188Re]Re-ZNA] | 1.08 ± 0.14 %ID/g | 0.36 ± 0.06 %ID/g | 91.53 ± 1.39%
[^188Re]Re-risedronate |  |  | 73 ± 1.21%
